For this assay, the target named is Acetylcholinesterase (Electrophorus electricus, UniProt O42275). Description: Inhibition of Electrophorus electricus (electric eel) acetylcholinesterase by Ellman method. (DTNB colorimetry detects thiols as they appear.)

Protein sequences, listed by entry. Tags and fused reporters are not part of them. Residues count along the entry.
UniProt O42275, 24-633 limits assumed: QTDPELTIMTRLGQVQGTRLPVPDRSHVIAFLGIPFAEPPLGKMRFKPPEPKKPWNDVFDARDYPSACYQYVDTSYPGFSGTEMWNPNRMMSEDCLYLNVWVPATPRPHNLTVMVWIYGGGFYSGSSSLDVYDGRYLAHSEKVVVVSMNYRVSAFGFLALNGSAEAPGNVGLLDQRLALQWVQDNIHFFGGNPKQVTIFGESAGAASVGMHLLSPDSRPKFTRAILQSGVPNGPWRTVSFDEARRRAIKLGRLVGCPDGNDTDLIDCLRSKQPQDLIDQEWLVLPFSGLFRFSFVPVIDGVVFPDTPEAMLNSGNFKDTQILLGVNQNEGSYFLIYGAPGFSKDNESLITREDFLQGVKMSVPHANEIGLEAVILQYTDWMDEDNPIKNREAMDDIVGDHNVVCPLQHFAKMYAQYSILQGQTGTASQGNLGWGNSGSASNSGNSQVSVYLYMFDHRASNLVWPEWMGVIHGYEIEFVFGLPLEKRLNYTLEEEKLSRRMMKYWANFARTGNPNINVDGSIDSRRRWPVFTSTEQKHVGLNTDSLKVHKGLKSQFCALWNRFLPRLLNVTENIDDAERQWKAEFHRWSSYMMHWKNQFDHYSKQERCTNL

SMILES strings stand for the structures.

For orientation: IC50 means the concentration at which inhibition is half-maximal. Higher therefore signals weaker potency. Compound `CCOP(=S)(OCC)SCc1cccc(CSP(=S)(OCC)OCC)n1` showed an IC50 of 352 µM. Compound `CCOP(=O)(OCC)SCc1cccc(CSP(=O)(OCC)OCC)n1` displayed an IC50 of 91.7 µM.
